Experimental data as given in ChEMBL document CHEMBL5038666, “Discovery of DNA-Targeting HDAC Inhibitors with Potent Antitumor Efficacy In Vivo That Trigger Antitumor Immunity” (J Med Chem, 2022).

Protein sequences, listed by entry. Tags and fused reporters are not part of them.
UniProt Q13547, whole entry: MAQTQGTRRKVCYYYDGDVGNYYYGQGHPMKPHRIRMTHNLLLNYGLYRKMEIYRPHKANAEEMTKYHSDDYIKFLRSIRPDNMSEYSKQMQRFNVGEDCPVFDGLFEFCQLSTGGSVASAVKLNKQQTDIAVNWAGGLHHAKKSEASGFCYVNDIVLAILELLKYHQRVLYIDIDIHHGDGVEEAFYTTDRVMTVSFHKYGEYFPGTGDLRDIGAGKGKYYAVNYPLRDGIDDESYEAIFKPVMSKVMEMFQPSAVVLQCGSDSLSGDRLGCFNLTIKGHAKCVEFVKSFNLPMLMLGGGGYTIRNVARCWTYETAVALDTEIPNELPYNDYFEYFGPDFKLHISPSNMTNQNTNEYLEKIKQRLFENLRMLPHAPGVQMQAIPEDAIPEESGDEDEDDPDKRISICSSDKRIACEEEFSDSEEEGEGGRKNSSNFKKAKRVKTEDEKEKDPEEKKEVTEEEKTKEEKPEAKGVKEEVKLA

Tests used:
[1] = molecular target: T1, Protein deacetylase HDAC6 (Homo sapiens) (UniProt Q9UBN7); assay: Potency index, ratio of SAHA IC50 to test compound IC50 for inhibition of HDAC6 (unknown origin) using fluorogenic substrate incubated for 30 mins by fluorescence based assay
T1 sequence (whole entry): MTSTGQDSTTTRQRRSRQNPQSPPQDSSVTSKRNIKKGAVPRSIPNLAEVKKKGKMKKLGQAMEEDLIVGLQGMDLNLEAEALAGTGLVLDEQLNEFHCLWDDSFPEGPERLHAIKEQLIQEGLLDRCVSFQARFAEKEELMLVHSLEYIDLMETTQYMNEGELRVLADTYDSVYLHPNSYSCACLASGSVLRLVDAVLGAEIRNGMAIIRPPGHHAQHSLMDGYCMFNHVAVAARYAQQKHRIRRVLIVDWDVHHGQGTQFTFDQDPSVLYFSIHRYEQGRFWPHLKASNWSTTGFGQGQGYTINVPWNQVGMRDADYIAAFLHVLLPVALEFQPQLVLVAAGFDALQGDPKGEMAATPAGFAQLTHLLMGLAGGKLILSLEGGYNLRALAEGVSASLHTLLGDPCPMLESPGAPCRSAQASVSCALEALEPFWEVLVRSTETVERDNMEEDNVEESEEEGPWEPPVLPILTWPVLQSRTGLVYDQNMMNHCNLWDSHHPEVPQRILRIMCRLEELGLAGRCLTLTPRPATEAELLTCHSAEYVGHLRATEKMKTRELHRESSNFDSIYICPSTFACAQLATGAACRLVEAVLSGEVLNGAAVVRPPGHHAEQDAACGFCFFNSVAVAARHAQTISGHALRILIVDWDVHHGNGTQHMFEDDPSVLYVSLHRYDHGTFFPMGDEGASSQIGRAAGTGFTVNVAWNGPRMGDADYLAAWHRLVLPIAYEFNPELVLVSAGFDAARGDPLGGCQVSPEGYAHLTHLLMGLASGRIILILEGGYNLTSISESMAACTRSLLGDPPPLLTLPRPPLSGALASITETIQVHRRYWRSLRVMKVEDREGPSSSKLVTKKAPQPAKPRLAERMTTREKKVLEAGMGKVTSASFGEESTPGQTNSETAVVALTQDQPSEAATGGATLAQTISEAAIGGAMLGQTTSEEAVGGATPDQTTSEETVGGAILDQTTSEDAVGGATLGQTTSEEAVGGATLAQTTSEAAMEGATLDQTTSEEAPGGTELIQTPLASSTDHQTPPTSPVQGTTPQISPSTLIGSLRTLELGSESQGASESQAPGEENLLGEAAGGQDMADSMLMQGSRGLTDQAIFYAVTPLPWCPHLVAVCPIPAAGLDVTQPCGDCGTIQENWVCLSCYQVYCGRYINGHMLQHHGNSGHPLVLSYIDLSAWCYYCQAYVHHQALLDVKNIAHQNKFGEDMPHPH

[2] = molecular target: Histone deacetylase 1 (Homo sapiens, UniProt Q13547); assay: Potency index, ratio of SAHA IC50 to test compound IC50 for inhibition of HDAC1 (unknown origin) using fluorogenic substrate incubated for 30 mins by fluorescence based assay

SMILES | Ratio IC50 [1] | Ratio IC50 [2]
O=C(CCCCCCCOc1cccc(-c2nc3ccc(-c4nc5ccccc5[nH]4)cc3[nH]2)c1)NO | 2.5 | 
O=C(CCCCCCOc1cccc(-c2nc3ccccc3[nH]2)c1)NO | 2.5 | 10
O=C(CCCCCCCOc1cccc(-c2nc3ccccc3[nH]2)c1)NO | 2.5 | 
O=C(CCCCCCOc1ccc(-c2nc3ccc(-c4nc5ccccc5[nH]4)cc3[nH]2)cc1)NO | 2.5 | 
